Assay results published in patent publication US10703746B2, “Mutant IDH1 inhibitors useful for treating cancer” (THE UNITED STATES OF AMERICA, AS REPRESENTED BY THE …, priority 2014, dated 2020).

Sequences of proteins named here, by UniProt entry; tags and fusion partners are left off.
UniProt O75874, whole entry R132C: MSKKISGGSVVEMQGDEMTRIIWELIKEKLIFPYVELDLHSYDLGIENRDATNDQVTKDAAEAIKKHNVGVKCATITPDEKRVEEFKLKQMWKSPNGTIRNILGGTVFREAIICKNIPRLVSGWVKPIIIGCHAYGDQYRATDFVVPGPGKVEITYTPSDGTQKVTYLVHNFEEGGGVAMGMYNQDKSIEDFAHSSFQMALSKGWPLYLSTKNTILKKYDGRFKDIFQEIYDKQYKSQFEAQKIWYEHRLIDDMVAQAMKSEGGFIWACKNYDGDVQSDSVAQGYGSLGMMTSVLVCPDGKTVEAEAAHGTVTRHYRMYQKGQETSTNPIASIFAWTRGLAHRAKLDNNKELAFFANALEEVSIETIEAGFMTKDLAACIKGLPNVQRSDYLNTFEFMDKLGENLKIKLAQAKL
UniProt O75874, whole entry R132H: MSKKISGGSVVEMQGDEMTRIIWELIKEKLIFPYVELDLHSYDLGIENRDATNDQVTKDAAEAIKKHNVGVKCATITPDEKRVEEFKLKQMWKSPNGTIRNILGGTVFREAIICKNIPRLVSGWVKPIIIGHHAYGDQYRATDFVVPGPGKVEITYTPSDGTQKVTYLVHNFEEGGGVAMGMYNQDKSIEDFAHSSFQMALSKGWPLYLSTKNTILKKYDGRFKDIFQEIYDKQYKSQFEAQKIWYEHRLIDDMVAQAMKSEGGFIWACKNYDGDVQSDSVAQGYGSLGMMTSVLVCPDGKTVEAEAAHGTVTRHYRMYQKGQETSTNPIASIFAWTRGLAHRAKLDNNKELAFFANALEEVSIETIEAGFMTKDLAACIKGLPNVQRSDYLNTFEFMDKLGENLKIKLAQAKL

Tests used:
IDH1 R132C = IDH1 R132C (Homo sapiens, UniProt O75874, R132C); experiment: IDH1 R132C enzymatic assay (NADPH depletion coupled to diaphorase/resazurin); details: read-out: Data for R132C
IDH1 R132H = IDH1 R132H (Homo sapiens, UniProt O75874, R132H); experiment: IDH1 R132H enzymatic assay (NADPH depletion coupled to diaphorase/resazurin); details: read-out: Data for R132H
[1] = IDH1 R132C enzymatic inhibition, IC50 class
[2] = IDH1 R132H enzymatic inhibition, IC50 class
[3] = enzymatic inhibition, IDH1 R132C
[4] = enzymatic inhibition, IDH1 R132H

## CCc1cccc(CC)c1-n1c(CC(C)C)c(C(=O)N2CCNCC2)cc(-c2nc(-c3ccc(OC(F)(F)F)cc3)c(C)s2)c1=O
IDH1 R132C; [1]
  IC50: < 300 nM
IDH1 R132H; [2]
  IC50: 300 to 1000 nM

## CCc1cccc(CC)c1-n1c(C=C(C)C)c(C(=O)N2CCNCC2)cc(-c2ccn(-c3ccc(OC(C)C)cc3)n2)c1=O
IDH1 R132C; IDH1 R132C enzymatic inhibition, IC50 class, tested form: TFA salt
  IC50: < 300 nM
IDH1 R132H; IDH1 R132H enzymatic inhibition, IC50 class, tested form: TFA salt
  IC50: < 300 nM

## CCc1cccc(CC)c1-n1c(C=C(C)C)c(C(=O)N2C[C@H]3CC[C@@H](C2)N3)cc(-c2nc(-c3ccc(Cl)cc3)cs2)c1=O [Compound 388]
IDH1 R132C; [3]
  IC50: < 300 nM
IDH1 R132H; [4]
  IC50: < 300 nM

## CCc1cccc(CC)c1-n1c(CO)c(C(=O)O)cc(-c2nc(-c3ccc(Cl)cc3)cs2)c1=O
IDH1 R132C; [1]
  IC50: 5000 to 20000 nM
IDH1 R132H; [2]
  IC50: 5000 to 20000 nM

## CCc1cccc(CC)c1-n1c(C=C(C)C)c(C(=O)N2C[C@@H]3C[C@H]2CN3)cc(-c2nc(-c3ccc(C(F)(F)F)cc3)cs2)c1=O
IDH1 R132C; [3]
  IC50: < 300 nM
IDH1 R132H; [4]
  IC50: 300 to 1000 nM

## CCc1cccc(CC)c1-n1c(CC(C)OC)c(C(=O)N2CCNCC2)cc(-c2nc(-c3ccc(Cl)cc3)cs2)c1=O (centres unmarked)
IDH1 R132C; [3]
  IC50: 300 to 1000 nM
IDH1 R132H; [4]
  IC50: < 300 nM

## CCOc1cccc(F)c1-n1c(C=C(C)C)c(C(=O)N2CCNCC2)cc(-c2nc(-c3ccc(Cl)cc3)cs2)c1=O
IDH1 R132C; enzymatic inhibition, IDH1 R132C, tested form: TFA salt
  IC50: < 300 nM
IDH1 R132H; enzymatic inhibition, IDH1 R132H, tested form: TFA salt
  IC50: < 300 nM

## CCc1cccc(CC)c1-n1c(CC(C)C)c(C(=O)N2CCNCC2)cc(-c2nc(-c3ccc(OCC(C)C)cc3)c(C)s2)c1=O
IDH1 R132C; [1]
  IC50: 1000 to 5000 nM
IDH1 R132H; [2]
  IC50: 1000 to 5000 nM

## CCOc1ccc(OCC)c(-n2c3c(cc(-c4nc(-c5ccc(Cl)cc5)cs4)c2=O)C(=O)CCC3)c1
IDH1 R132C; [1]
  IC50: 300 to 1000 nM
IDH1 R132H; [2]
  IC50: 300 to 1000 nM

## CCc1cccc(CC)c1-n1c(CC(C)C)c(C(=O)NCC(C)O)cc(-c2nc(-c3ccc(Cl)cc3)cs2)c1=O (centres unmarked)
IDH1 R132C; [1]
  IC50: < 300 nM
IDH1 R132H; [2]
  IC50: 300 to 1000 nM

Like-named read-outs stand apart in the source and are kept apart here.
